pKi: −log10 of the molar value.
Target: Sigma intracellular receptor 2 (Homo sapiens, UniProt Q5BJF2)
Test: Displacement of [3H]DTG from sigma-2 receptor in HEK293 cell membrane assessed as inhibition constant
Type: cell membranes
Method in brief: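 Competitive radioligand binding in membranes harvested from HEK293 cells, with one radioligand per target: [3H]N-methylspiperone for D2, D3 and D4; [3H]SCH23390 for D1 and D5; [3H]pentazocine for σ1; [3H]DTG for σ2. Ki derived from inhibition of binding, each run in triplicate.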

Chains of the proteins cited; added tags and fusions are not shown.
UniProt Q5BJF2, whole entry: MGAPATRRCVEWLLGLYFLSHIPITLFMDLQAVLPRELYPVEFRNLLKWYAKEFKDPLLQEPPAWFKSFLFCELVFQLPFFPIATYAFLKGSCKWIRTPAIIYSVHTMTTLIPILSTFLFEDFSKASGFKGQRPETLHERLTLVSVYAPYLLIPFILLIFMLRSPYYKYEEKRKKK

pKi: 6.52
Compound: Cc1c(Cl)cccc1NC(=O)CN1CCC(OCc2ccc(F)c(F)c2)CC1
